Measurements taken from publication PMC4151520 (Journal of medicinal chemistry, 2011).

Amino acid sequences for entries named in this document (tags omitted). Residues count along the entry.
UniProt Q13285, 222-459 limits assumed: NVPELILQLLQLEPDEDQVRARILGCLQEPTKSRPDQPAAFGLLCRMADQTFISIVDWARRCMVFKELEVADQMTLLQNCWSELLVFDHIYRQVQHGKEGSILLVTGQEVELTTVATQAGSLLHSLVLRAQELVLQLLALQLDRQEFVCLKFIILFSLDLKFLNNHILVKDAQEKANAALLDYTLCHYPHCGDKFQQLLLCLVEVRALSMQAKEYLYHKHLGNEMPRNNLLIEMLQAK

Tests used:
human SF-1 = human SF-1 (Homo sapiens, UniProt Q13285); conditions: plateau level, normalized to 24-exo
[1] = room temperature, 2 weeks

Compound | RE (relative efficacy of peptide recruitment) SF-1 (human SF-1) | stability in CDCl3 in the presence of daylight [1]
C=C(c1ccccc1)[C@@]12CC[C@H](O)[C@@H]1CC(CCCCCC)=C2c1ccccc1 (racemic) [Compound 24-endo, rac-(1R,5R,6S)-3-Hexyl-6-hydroxy-2-phenyl-1-(phenylvinyl)-bicyclo[3.3.0]oct-2-ene] | 0.77 | stable
C=C(c1ccccc1)[C@@]12CC[C@@H](O)[C@@H]1CC(CCCCCC)=C2c1ccccc1 (racemic) [Compound 24-exo, rac-(1R,5R,6R)-3-Hexyl-6-hydroxy-2-phenyl-1-(phenylvinyl)-bicyclo[3.3.0]oct-2-ene] | – | stable
